Earlier results, collected in patent US7141170B2, “Halogenated solvent remediation” (North Wind, Inc., priority 2004, dated 2006).

Settings: Surfactant Concentration 1%; cited from earlier work

Question: Which “PCE Solubilized” value does the source give for Nonylphenol ethoxylate here?
Answer: Its value is 1,300 mg/l.
